Measured values published in PubChem BioAssay AID485318 (Broad Institute, 2010).
The entries are a selection whose mix differs from that of the whole data set. Activity calls are given as the source filed them.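 How the source made its calls: active means fluorescence-lowering compounds whose fitted half-maximal concentration is at or below ten times the highest valid dose tested; inconclusive means flat curve at 30 to 70% inhibition, or poor fit; inactive means the rest.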

Amino acid sequences for entries named in this document (tags omitted). A change or cut given only in a name is not applied to a line headed by its entry.
UniProt O15379: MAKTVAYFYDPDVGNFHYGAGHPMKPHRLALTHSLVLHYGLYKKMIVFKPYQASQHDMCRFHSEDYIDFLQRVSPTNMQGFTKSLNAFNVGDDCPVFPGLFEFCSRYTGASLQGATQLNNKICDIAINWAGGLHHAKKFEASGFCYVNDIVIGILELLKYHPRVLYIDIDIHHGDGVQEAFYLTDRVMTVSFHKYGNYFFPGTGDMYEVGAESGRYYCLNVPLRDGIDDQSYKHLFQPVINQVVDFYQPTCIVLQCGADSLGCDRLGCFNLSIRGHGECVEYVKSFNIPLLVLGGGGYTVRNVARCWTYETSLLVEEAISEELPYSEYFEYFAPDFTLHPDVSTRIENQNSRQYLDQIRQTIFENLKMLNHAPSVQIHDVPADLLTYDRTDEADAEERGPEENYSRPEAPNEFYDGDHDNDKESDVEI

Target: Histone deacetylase 3 (Homo sapiens) (UniProt O15379)
Test: HDAC3 deacetylase inhibitors, dose response, counter-screen for JMJD2C/GASC1 demethylase inhibitor project, biochemical, fluorescence, cherry-picked samples (AID 485318);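 further: enzyme preincubated with compound before substrate and trypsin were added; 0% = neutral control wells and -100% = SAHA positive control wells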
Conditions: recombinant HDAC3, fluorogenic peptide/trypsin coupled; at 12 µM (top of the series)

| Compound | activity change, negative = inhibition |
| --- | --- |
| Cc1ccc(OCC(=O)OC2CN3CCC2CC3)cc1 (stereo unspecified) | inactive: 0.221% |
